For 1 substance, Redox potential results are on record in patent USRE40198E1, “Method and device for electrochemical immunoassay of multiple analytes” (Roche Diagnostics Operations, Inc., priority 1998, dated 2008).

The nature of the data set: Redox potential of Os mediator. Type of data set: physicochemical. An excerpt: It has fast mediation kinetics (about 500 times faster than ferricyanide with glucose oxidase) and a relatively low redox potential (+150 mV vs. Ag/AgCl). It has also very fast electron transfer rate at electrode surface. More importantly, the organic ligands on Os mediator can be functionalized so that it can be covalently linked to other molecules without detrimental effects on redox properties of the Os center. These unique properties of Os mediator make it an ideal electrochemical indicator for sensors based on immunoaffinity.

Turning to “Bis(2,2′-bipyridyl) imidazolyl chloroosmium [Os mediator]”, the Redox potential result was “+150 mV vs. Ag/AgCl”.
